# Entries after “also recorded” stand apart in the source; their conditions may differ.
# Columns and labels:
# [1] = tested on: Ba/F3 cells expressing empty vector; test: MTS proliferation assay of Ba/F3 cells expressing empty vector in the presence of IL-3; type: cell-based, murine; details: supplemented with IL-3
# [2] = tested on: lung adenocarcinoma harboring MPRIP-NTRK1; details: crizotinib 250 mg twice daily
# [3] = tested on: Ba/F3 cells expressing MPRIP-NTRK1 (RIP-TRKA); test: MTS proliferation assay of Ba/F3 cells expressing NTRK1 fusions; type: cell-based, murine; details: Ba/F3 cells expressing NTRK1 gene fusions, without IL-3
# [4] = tested on: KM12 cells; test: Apoptosis in KM12 cells (YO-PRO/PI flow cytometry); type: cell-based; details: 24 h
# [5] = tested on: KM12 cells; test: MTS proliferation assay of KM12 cells; type: cell-based
structure (smiles),measurement,setting,value
C[C@@H](Oc1cc(-c2cnn(C3CCNCC3)c2)cnc1N)c1c(Cl)ccc(F)c1Cl [crizotinib],sensitivity of Ba/F3 cells expressing empty vector,[1],intrinsic sensitivity
same,time on treatment to clinical progression,[2],~3 months
same,serum levels of CA125,[2]; first evaluation,decrease
same,inhibition of proliferation,[3],leads to inhibition; also recorded: less potent inhibitor
same,apoptosis,[4],induce apoptosis
same,proliferation of KM12 cells,[5],inhibited; also recorded: less so

# Source: patent US11578372B2, “NTRK1 fusion molecules and uses thereof” (FOUNDATION MEDICINE, INC., priority 2012, dated 2023)
